Results on one substance are retold here after patent US9505834B2, “Methods for controlling the galactosylation profile of recombinantly-expressed proteins” (AbbVie Inc., priority 2011, dated 2016).

Series [1] relates to adalimumab-producing CHO cell line. The settings on record: some cultures with 20 μM or 40 μM manganese chloride. As to the method:
(§1) For all studies with CHO cell lines described throughout this invention, samples were collected daily and measured for cell density and viability using a Cedex cell counter. Retention samples for titer analysis via Poros A method were collected by centrifugation at 12,000 RPM for 5 min when the culture viability began declining. The cultures were harvested by collecting 125 mL aliquots and centrifuging at 3,000 RPM for 30 min when culture viability was near or below 50%. All supernatants were stored at −80° C. until analysis.
All media were filtered through Corning 0.5 L or 1 L filter systems (0.22 μm PES) and stored at 4° C. until use.
Production cultures were initiated in duplicate 500 mL Corning vented non-baffled shake flasks (200 mL working volume) at an initial VCD of approximately 0.5×10^6 cells/mL. Cultures were maintained on orbital shakers at 110 RPM in a dry incubator at 35° C. and 5% CO2. A glucose solution (1.25% (v/v) of 40% solution) was fed when the media glucose concentration fell below 3 g/L.

For series [2], the system named is CHO cell line producing mAb #1. Nature of the series: Example 7 culture growth & productivity. As to conditions: 40 μM manganese chloride and galactose at all levels studied. How it is done: as §1
Growth and production media for the CHO cell line producing mAb #1 were prepared using a proprietary Life Technologies Gibco chemically defined media, GIA-1. […] All media were filtered through Corning 0.5 L or 1 L filter systems (0.22 μm PES) and stored at 4° C. until use.
Upon thaw, cells were expanded for 6 (3 day each) passages in a combination of 250 mL, 500 mL, and 1000 mL Corning vented non-baffled shake flasks. Production cultures were initiated in duplicate 500 mL Corning vented non-baffled shake flasks (200 mL working volume) at an initial VCD of approximately 0.5×10^6 cells/mL. Cultures were maintained on orbital shakers at 125 RPM in a dry incubator at 35° C. and 5% CO2. A glucose solution (1.25% (v/v) of 40% solution) was fed when the media glucose concentration fell below 3 g/L. […]

Series [3] concerns adalimumab-producing CHO cell line. Put plainly: Example 1 culture growth & productivity, batch shake flasks. In kind it is cell-based, Chinese Hamster. The settings on record: production IVGN CDM GIA-1. As to the method:
All supernatants were stored at −80° C. until analysis. […] Culture growth, productivity, and product quality data for control cultures is the average of the 3 experiments.

The test system is the same in series [4]. Put plainly: Example 2 culture growth & productivity, HyClone CDM4CHO. The settings on record: manganese chloride 20 μM or 40 μM. How it is done:
as §1
Growth and production media for the adalimumab-producing CHO cell line were prepared using Thermo Scientific HyClone chemically defined media CDM4CHO without L-glutamine (Catalogue #SH30558.02). […] All media were filtered through Corning 0.5 L or 1 L (0.22 μm PES) filter systems and stored at 4° C. until use.
Upon thaw, cells were adapted to and expanded in HyClone CDM4CHO media for 5 (2 to 3 day each) passages in a combination of 250 mL, 500 mL, and 1000 mL Corning vented non-baffled shake flasks. Production cultures were initiated in duplicate 500 mL Corning vented non-baffled shake flasks (200 mL working volume) at an initial VCD of approximately 0.5×10^6 cells/mL. Cultures were maintained on orbital shakers at 110 RPM in a dry incubator at 35° C. and 5% CO2. […]

For the substance “Manganese (II) Chloride [manganese chloride]”, the viability result in series [1] is given as “decreased viability by day 3 of production culture, but recovered”. The culture growth entry in series [2] is “slower growth and decreased peak VCD compared to the control”; in series [4], “slowed down culture growth”. The “manganese concentration at which growth inhibition was observed” value in series [3] was “about 100 μM”.
